Laboratory results published in BindingDB's records for doi:10.1007/pl00005315 (Eli Lilly, 1999).

By UniProt entry, the sequences of proteins in these tests, tags left out.
UniProt P30994, whole entry: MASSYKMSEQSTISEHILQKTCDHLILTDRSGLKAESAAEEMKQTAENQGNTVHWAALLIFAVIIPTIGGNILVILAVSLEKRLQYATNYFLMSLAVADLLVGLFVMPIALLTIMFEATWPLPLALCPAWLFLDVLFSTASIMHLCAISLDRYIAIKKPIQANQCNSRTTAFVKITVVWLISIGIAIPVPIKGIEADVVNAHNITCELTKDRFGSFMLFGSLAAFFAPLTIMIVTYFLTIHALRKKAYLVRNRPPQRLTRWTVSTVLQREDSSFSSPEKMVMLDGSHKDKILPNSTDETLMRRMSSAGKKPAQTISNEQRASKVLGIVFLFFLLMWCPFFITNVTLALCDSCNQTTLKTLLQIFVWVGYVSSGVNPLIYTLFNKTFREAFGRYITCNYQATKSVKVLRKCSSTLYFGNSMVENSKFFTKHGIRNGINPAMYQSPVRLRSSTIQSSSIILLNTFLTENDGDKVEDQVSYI

Target: 5-hydroxytryptamine receptor 2B (Rattus norvegicus, UniProt P30994)

Q: How did the Ki turn out when `COc1cc(CC(C)N)c(OC)cc1Br` (stereo not drawn) [2-(4-Bromo-2,5-dimethoxy-phenyl)-1-methyl-ethylamine((-)-DOB)] was run?
A: 21.8 nM
